Data: patent US12617783B2, “Heterocyclic GLP-1R agonists” (BIOMEA FUSION, INC., priority 2024, dated 2026)

Amino acid sequences for entries named in this document (tags omitted). Residues count along the entry.
UniProt P43220, 24-463 limits assumed: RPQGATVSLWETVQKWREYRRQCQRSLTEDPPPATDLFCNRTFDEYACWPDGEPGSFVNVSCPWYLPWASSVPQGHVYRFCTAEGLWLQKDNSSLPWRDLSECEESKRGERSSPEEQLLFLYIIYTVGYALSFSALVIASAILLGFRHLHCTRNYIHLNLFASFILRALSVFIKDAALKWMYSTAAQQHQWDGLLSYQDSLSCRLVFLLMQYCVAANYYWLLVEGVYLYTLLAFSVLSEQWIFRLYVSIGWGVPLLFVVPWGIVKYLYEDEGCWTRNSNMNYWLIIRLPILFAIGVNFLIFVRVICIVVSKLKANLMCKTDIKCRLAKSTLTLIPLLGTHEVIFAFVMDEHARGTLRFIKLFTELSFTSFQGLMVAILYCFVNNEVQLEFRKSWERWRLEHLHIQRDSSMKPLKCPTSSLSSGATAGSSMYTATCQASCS

Target: human GLP-1R (Homo sapiens, UniProt P43220)
Assay: GLP-1R cAMP assay (Example B1a, HTRF, 30 min at room temperature)
Conditions: cAMP accumulation in HEK293 expressing human GLP-1R, no BETP, 30 min room temperature (Method B1a, compounds ID 1-609), Table 1

Cc1cc(-n2nc3c(c2-n2ccn(-c4ccc5c(cnn5C)c4F)c2=O)[C@@H]2CC[C@H](C3)N2C(=O)c2cc3oc(C4CCOC(C)(C)C4)nc3n2[C@@]2(c3noc(=O)[nH]3)C[C@@H]2C)cc(C)c1F (stereo partly drawn)
EC50: > 10 µM

Cc1cc(-n2nc3c(c2-n2ccn(-c4ccc5c(ncn5C)c4F)c2=O)[C@@H]2CC[C@H](C3)N2C(=O)c2cc3cc([C@H]4CCOC(C)(C)C4)ccc3n2C2(c3noc(=O)[nH]3)CC2)cc(C)c1F
EC50: > 10 µM

Cc1cc(-n2nc3c(c2-n2ccn(-c4ccc5c(cnn5CCN5CCOCC5)c4F)c2=O)[C@@H]2CC[C@H](C3)N2C(=O)c2cc3cc([C@H]4CCOC(C)(C)C4)ccc3n2[C@@]2(c3noc(=O)[nH]3)C[C@@H]2C)cc(C)c1F
EC50: 2.04 µM
